Source: US10550089B2, “Inhibitors of protease-activated receptor-2” (Heptares Therapeutics Limited, priority 2016, dated 2020)

Protein sequences, listed by entry. Tags and fused reporters are not part of them. Residues count along the entry.
UniProt P55085, 26-397: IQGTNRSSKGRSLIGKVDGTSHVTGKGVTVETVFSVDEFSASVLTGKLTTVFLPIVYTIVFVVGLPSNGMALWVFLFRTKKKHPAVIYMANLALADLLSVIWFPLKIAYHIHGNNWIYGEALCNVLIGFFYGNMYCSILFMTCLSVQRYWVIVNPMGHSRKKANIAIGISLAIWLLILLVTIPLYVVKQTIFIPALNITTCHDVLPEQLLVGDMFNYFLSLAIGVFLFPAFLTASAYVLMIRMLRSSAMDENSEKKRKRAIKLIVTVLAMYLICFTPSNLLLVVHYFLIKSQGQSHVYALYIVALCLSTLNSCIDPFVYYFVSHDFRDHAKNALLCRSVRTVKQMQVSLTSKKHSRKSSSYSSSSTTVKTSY

How the values were obtained:
PAR2 [1] = target: T1, PAR2 (Homo sapiens (Human), UniProt P55085); assay: IP-One HTRF assay for PAR2 antagonist activity (IP1 production); type: cell-based; settings: hPAR2 IPpone IC50 (μM), 1321N1 cells stably expressing human PAR2; agonist SLIGRL-NH2
Procedure: Protocol for Testing Compounds for PAR2 Antagonist Activity Using an IP-One HTRF Assay
Inositol monophosphate (IP1) production were measured in 1321N1 cells stably expressing human PAR2 using an IP-One HTRF assay kit (Cisbio). […] After 60 min at 37° C. cells were lysed and IP1 concentrations were detected according to the manufacturers protocol (Cisbio). Data were normalized to IP1 concentrations using a IP1 standard curve according to the manufacturers protocol (Cisbio).

PAR2 [2] = target: T1, PAR2; assay: Trypsin activated FLPR Ca2+ mobilization assay for PAR2 antagonist activity; type: cell-based; settings: hPAR2 FLPR (Trypsin) IC50 (μM), 1321N1 cells stably expressing human PAR2; agonist Trypsin; Vorapaxar present to block PAR1
Procedure: Trypin Activated FLPR Assay:
Protocol for Testing Compounds for PAR2 Antagonist Activity Using a Ca2+ Mobilization Assay
Calcium mobilization was measured using 1321N1 cells stably expressing human PAR2. Cells were seeded in 384-well plates at 4,000 cells per well in 20 μl DMEM with Glutamax supplemented with 10% FBS and incubated for 18-24 h at 37° C., 5% CO2 and 95% humidity. […] The addition was done using a FLIPR^TETRA (384-well head, Molecular Devices) and the response was read simultaneously to detect any agonist activity.

SMILES	IC50 (PAR2 [1])	IC50 (PAR2 [2])
OC(c1ncc[nH]1)c1ccc(F)c2oc3ccccc3c12 (stereo not drawn) [Example 53, (4-Fluorodibenzo[b,d]furan-1-yl)(1H-imidazol-2-yl)methanol]	1.63 µM	5.42 µM
Cc1cccc2c(F)ccc(C(O)c3ncc[nH]3)c12 (stereo not drawn) [Example 59, (4-Fluoro-8-methylnaphthalen-1-yl)(1H-imidazol-2-yl)methanol]	–	6.73 µM
CCc1ccn2c(F)ccc(C(O)c3ncc[nH]3)c12 (stereo not drawn) [Example 60, (1-Ethyl-5-fluoro-indolizin-8-yl)-(1H-imidazol-2-yl)methanol]	–	8.13 µM
OC(c1ncn[nH]1)c1ccc(F)cc1N1CCCC1 (stereo not drawn) [Example 64, (4-Fluoro-2-(pyrrolidin-1-yl)phenyl)(1H-1,2,4-triazol-5-yl)methanol]	4.06 µM	20 µM
